Where a SMILES comes first, the peptide text is derived from it.
Columns and labels:
Details in all cases: salt-containing MHB with ampicillin 100 µg/mL and L-arabinose 0.1 g/L
[1] = test system: E. coli BW25113 ΔwaaP (pBAD-WaaP)
[2] = test system: E. coli BW25113 ΔwaaP (pBAD-WaaP^N159H)
[3] = test system: E. coli BW25113 ΔwaaP (pBAD-mScarlet)

## CC[C@H](C)[C@H](NC(=O)[C@H](CCCNC(=N)N)NC(=O)[C@@H](N)CCCNC(=N)N)C(=O)N[C@@H](CCCNC(=N)N)C(=O)N1CCC[C@H]1C(=O)N[C@@H](CCCNC(=N)N)C(=O)N1CCC[C@H]1C(=O)N1CCC[C@H]1C(=O)N[C@@H](CCCNC(=N)N)C(=O)N[C@@H](CC(C)C)C(=O)N1CCC[C@H]1C(=O)N[C@@H](CCCNC(=N)N)C(=O)N1CCC[C@H]1C(=O)N[C@@H](CCCNC(=N)N)C(=O)N1CCC[C@H]1C(=O)N[C@@H](CCCNC(=N)N)C(=O)N1CCC[C@H]1C(=O)N[C@@H](CC(C)C)C(=O)N1CCC[C@H]1C(=O)N[C@@H](Cc1ccccc1)C(=O)N1CCC[C@H]1C(=O)N[C@@H](CCCNC(=N)N)C(=O)O [Bac7_1-22] (H-RRIRPRPPRLPRPRPRPLPFPR-OH)
[1]
  MIC, MHB +0.9% NaCl: 0.125 µM
[2]
  MIC, MHB +0.9% NaCl: 0.5−1 μM
[3]
  MIC, MHB +0.9% NaCl: 1 µM
